Test results published in US20160096866A1 (University of Pennsylvania, published 2016).
pKd: −log10 of the molar value.

By UniProt entry, the sequences of proteins in these tests, tags left out. Residues count along the entry.
UniProt P01024, 23-1663 limits assumed: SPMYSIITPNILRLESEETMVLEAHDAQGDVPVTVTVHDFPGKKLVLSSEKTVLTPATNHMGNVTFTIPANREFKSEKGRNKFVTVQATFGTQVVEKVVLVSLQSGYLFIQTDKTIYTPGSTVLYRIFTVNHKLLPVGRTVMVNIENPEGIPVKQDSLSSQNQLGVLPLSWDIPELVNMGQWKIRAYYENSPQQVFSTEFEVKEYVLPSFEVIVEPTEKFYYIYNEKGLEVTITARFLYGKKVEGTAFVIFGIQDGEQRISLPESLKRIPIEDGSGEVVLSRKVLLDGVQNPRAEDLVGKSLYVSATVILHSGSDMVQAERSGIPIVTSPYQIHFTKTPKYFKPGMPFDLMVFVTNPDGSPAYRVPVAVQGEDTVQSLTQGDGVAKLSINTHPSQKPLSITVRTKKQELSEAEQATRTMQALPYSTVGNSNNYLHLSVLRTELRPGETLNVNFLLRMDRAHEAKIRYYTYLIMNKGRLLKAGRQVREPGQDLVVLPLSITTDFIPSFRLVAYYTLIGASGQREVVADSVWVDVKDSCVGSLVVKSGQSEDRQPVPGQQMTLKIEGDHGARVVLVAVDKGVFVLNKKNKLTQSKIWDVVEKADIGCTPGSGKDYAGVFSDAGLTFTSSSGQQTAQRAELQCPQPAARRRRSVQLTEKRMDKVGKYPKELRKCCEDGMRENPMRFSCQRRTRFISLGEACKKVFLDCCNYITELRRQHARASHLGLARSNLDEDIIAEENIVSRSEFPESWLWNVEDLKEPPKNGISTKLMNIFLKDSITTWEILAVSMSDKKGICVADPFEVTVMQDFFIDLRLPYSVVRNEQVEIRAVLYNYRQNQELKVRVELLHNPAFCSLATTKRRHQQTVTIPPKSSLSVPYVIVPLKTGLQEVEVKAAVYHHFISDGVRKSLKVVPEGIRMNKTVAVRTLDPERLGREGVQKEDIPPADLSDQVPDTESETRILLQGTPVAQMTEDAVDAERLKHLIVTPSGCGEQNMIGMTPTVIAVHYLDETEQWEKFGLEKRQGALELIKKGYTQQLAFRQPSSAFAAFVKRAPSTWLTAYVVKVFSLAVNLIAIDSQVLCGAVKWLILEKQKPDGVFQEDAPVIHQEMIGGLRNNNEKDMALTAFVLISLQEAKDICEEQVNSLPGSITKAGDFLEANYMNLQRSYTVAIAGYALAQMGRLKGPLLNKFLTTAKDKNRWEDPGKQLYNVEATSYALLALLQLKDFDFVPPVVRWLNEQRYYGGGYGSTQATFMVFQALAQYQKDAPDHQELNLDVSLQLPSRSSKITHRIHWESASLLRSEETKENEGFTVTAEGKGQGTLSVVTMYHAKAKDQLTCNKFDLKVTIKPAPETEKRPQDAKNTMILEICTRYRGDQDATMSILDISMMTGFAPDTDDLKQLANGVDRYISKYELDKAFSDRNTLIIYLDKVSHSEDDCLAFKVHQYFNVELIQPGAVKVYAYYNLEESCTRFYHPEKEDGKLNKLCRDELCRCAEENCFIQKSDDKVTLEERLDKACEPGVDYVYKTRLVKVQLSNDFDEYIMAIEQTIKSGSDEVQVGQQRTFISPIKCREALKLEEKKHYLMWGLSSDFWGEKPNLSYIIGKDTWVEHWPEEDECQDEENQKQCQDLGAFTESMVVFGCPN

Experiments:
[1] = target: complement component C3 (human) (UniProt P01024); experiment: ITC, peptide titrated into C3, PBS pH 7.4, 25 C
[2] = target: complement component C3 (human) (UniProt P01024); experiment: ITC; this row is the reference
[3] = target: complement component C3 (human) (UniProt P01024); experiment: ITC; relative to Ac-V4W/H9A
[4] = target: complement component C3 (human) (UniProt P01024); experiment: ITC, peptide titrated into C3

With Ac-V4(5-methyl-W)/H9A (peptide) the -TΔS [1] was 8.2 kcal/mol and the pKd [1] was 6.92.

For Ac-V4W/H9A (peptide), the -TΔΔS [2] was 0 kcal/mol, the ΔΔG [2] was 0 kcal/mol and the ΔΔH [2] was 0 kcal/mol.

Work on Ac-V4(1-methyl-W)/H9A (peptide) yielded a -TΔS [1] of 6.94 kcal/mol.

Ac-V4W/W7(5f-l-W)/H9A (peptide) gave a ΔΔG [3] of -1 kcal/mol and a -TΔS [1] of 11.6 kcal/mol.

For Ac-V4(5f-l-W)/H9A (peptide), the -TΔS [1] was 7.39 kcal/mol and the ΔG [1] was -9.4 kcal/mol.

In the case of “Ac-V4(1-methyl-W)/W7(5f-l-W)/H9A (peptide)”, the -TΔS [1] was 6.73 kcal/mol.

Substance Ac-V4(5f-l-W)/W7(5f-l-W)/H9A (peptide) has a -TΔΔS [3] of -2.06 kcal/mol, a ΔΔG [3] of -1.2 kcal/mol and a ΔΔH [3] of 0.81 kcal/mol. The -TΔS [1] was 6.73 kcal/mol and the free energy change [4] was -10.5 kcal/mol.
